Experimental findings from patent publication US20030133874A1, “Analytical method to evaluate animal models of neurofibrillary degeneration” (priority 2002, published 2003) are described below.

Each structure is given as a SMILES string.

This test has as its system tau. As to the kind of experiment: Tau phosphorylation in rat brain after prolonged pentobarbital anesthesia, immunoblot of heat-stable extracts. In general terms: A western blot detects proteins with antibodies after separation by electrophoresis.

Consider `CCCC(C)C1(CC)C(=O)NC(=O)NC1=O` (stereo not drawn) [pentobarbital], for which the “AT8 reactivity normalized to total tau immunoreactivity, increase” value (65 mg/kg i.p., after five hours) is given as “more than five-fold”. For the same compound, for the setting “exposure beyond 15 minutes”, the “Tau-1 reactivity of tau” value was “decrease”. Further, under “surgical brain removal, prolonged anesthesia (5 hrs)”, the “AP422 reactivity of rat tau after induced hyperphosphorylation” value was “remains absent”.
